Assay results taken from patent publication US10479793B2, “Imidazopyridazine compounds useful as modulators of IL-12, IL-23 and/or IFN alpha responses” (BRISTOL-MYERS SQUIBB COMPANY, priority 2015, dated 2019).

Protein sequences, listed by entry. Tags and fused reporters are not part of them. Chains listed by the source or under a name are the forms on record and can include a tag or linker. Residues count along the entry.
UniProt P29597, 575-869 with tags or gaps: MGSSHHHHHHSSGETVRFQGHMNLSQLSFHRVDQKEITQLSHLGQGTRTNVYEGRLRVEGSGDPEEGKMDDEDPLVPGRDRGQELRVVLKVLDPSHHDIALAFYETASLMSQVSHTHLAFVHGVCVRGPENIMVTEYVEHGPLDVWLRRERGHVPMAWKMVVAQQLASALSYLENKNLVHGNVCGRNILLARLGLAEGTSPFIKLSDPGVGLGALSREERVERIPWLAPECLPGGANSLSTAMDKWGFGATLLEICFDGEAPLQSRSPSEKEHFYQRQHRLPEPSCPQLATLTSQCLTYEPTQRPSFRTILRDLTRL

Legend:
[1] = molecular target: recombinantly expressed His-tagged protein corresponding to amino acids 575-869 of human Tyk2 (Homo sapiens, UniProt P29597); assay: Probe displacement assay (scintillation proximity, tritiated probe); type: binding; settings: read-out: Probe Displacement (EC50); His-tagged Tyk2 (575-869) 2.5 nM, 40 nM radiolabeled probe, 30 minutes at room temperature
[2] = system: IL-23 stimulated Kit225 T cells with a stably-integrated STAT-dependent luciferase reporter; assay: Kit225 T cell assay, IL-23 stimulated STAT-dependent luciferase reporter; type: cell-based; settings: read-out: IL-23 Kit225 Reporter, (IC50), 20 ng/mL human recombinant IL-23, 5-6 hours
[3] = system: IFNα stimulated Kit225 T cells with a stably-integrated STAT-dependent luciferase reporter; assay: Kit225 T cell assay, IFNα stimulated STAT-dependent luciferase reporter; type: cell-based; settings: read-out: IFNa Kit225 Reporter, (IC50), 200 U/mL human recombinant IFNα, 5-6 hours

Row | Compound | EC50 [1] | IC50 [2] | IC50 [3]
1 | CNc1cc(Nc2cccnc2C(=O)NCCF)nn2c(C(=O)NC3CC3)cnc12 | 9.39 nM | 470 nM | 1420 nM
2 | CNc1cc(Nc2cccnc2C(=O)NC2CCS(=O)(=O)C2)nn2c(C(=O)NC3CC3)cnc12 (stereo not drawn) | 80 nM | 440 nM | 1260 nM
3 | CNc1cc(Nc2cccc(-n3nccc3O)n2)nn2c(C(=O)NC3CC3)cnc12 | 200 nM | 8690 nM | 8810 nM
